Laboratory results as given in article PMC4969713 (Journal of Alzheimer's Disease, 2016).
Where a name gives a salt, the structure may show the parent alone.

Experiments:
Format in all cases: in vivo
Pharmacokinetics in dogs = settings: Beagle, dog, blood, iv, 1 mg/kg
[1] = Pharmacokinetics in Rhesus monkeys
[2] = Phase I pharmacokinetics, single PO dose; settings: human, blood, 4 mg

Molecule Cc1ccc2c(c1)c1c(n2CCc2ccccc2)CCN(C)C1 [AVN-101, 2,8-dimethyl-5-penethyl-2,3,4,5-tetra-hydro-1h-pyrido[[4,3-B]]indole hydrochloride] has an AUC (Pharmacokinetics in dogs) of 2.29 ng·h/mL, a Tmax ([1]; Mean, PO 10 mg/kg) of 120 min and a Tmax ([1]; monkey 35189, PO 10 mg/kg) of 120 min. For the same molecule, the Tmax ([1]; rhesus monkey, in vivo, iv, 2 mg/kg) was 1 min, the Tmax ([1]; rhesus monkey, in vivo, po, 10 mg/kg) was 120 min and the Cmax [2] was 0.0229 ± 0.0164 ng/mL.
